Values quoted from earlier work in publication PMC10329699, “Pharmacokinetics, biodistribution and toxicology of novel cell-penetrating peptides” (Scientific Reports, 2023).

Details: i.v. injection in rats; ref Lee et al. 19, 40, 41

Substance: TAT-biotin
- T1/2 distribution phase: 0.87 min
- T1/2 elimination phase: 107 min
